Measured values published in patent US9751885B2, “Cyclopropanamine compound and use thereof” (Takeda Pharmaceutical Company Limited, priority 2012, dated 2017).
Counter-ions that a name gives are not always drawn.

Chains of the proteins cited; added tags and fusions are not shown.
UniProt P21397, whole entry: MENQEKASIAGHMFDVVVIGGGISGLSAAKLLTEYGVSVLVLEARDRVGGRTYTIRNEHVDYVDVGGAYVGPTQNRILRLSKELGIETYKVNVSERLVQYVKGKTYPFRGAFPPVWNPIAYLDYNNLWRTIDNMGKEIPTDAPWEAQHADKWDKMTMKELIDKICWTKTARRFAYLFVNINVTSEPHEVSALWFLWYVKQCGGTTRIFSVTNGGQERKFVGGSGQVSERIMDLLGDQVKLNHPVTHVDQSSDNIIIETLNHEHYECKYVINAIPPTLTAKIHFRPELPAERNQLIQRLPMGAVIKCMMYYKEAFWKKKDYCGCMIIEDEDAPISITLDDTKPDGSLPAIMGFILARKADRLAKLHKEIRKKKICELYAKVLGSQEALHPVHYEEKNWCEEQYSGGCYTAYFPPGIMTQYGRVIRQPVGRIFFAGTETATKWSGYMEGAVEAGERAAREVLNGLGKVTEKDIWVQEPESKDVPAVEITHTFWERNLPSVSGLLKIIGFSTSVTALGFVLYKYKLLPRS
UniProt P27338, whole entry: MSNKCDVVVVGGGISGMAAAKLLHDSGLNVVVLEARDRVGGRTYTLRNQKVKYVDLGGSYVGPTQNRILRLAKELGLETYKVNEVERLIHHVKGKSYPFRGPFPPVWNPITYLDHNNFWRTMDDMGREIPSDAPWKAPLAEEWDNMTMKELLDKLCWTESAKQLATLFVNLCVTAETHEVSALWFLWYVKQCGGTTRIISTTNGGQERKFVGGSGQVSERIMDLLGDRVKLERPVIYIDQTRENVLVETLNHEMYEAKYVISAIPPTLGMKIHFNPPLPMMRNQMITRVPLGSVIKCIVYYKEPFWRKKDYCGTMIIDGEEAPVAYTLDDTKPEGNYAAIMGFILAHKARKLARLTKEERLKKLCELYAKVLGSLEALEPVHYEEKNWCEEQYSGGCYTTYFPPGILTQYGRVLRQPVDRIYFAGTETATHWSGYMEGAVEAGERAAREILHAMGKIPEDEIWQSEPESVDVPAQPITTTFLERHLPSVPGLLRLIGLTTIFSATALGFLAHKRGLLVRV

How the values were obtained:
[1] = target: MAO-A enzyme (Homo sapiens (Human), UniProt P21397); assay: Measurement of MAO-A inhibitory activity (MAO-Glo Assay); assay type: biochemical
[2] = target: MAO-B enzyme (Homo sapiens (Human), UniProt P27338); assay: Measurement of MAO-B inhibitory activity (MAO-Glo Assay); details: read-out: MAO-B IC50 value;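 also: luminescence read-out, compound preincubated 10 min with enzyme then reacted 60 min at room temperature, inhibition relative to enzyme reaction without compound, blank lacking enzyme and compound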

Molecule `Cc1nnc(NC(=O)c2cc(F)ccc2[C@@H]2C[C@H]2NC2CCN(C3CC3)CC2)s1` (relative stereo) [Example 273, 2-(trans-2-((1-cyclopropylpiperidin-4-yl)amino)cyclopropyl)-5-fluoro-N-(5-methyl-1,3,4-thiadiazol-2-yl)benzamide dihydrochloride] has an IC50 [1] greater than 10 µM and an IC50 [2] greater than 10 µM.
`O=C(NC1CCCCNC1=O)c1cccc(C2CC2NCC2CC2)c1` (stereo not drawn) [Example 117, 3-(trans-2-((cyclopropylmethyl)amino)cyclopropyl)-N-(2-oxoazepan-3-yl) benzamide trifluoroacetate] showed an IC50 [1] greater than 10 µM and an IC50 [2] greater than 10 µM.
For `O=C(NC1CCN(Cc2ccccc2)C1)c1cccc(C2CC2NCC2CC2)c1` (stereo not drawn) [Example 118, N-(1-benzylpyrrolidin-3-yl)-3-(trans-2-((cyclopropylmethyl)amino)cyclopropyl)benzamide bis(trifluoroacetate)], the IC50 [1] was greater than 10 µM and the IC50 [2] was greater than 10 µM.
`NC1CC1c1cccc(C(=O)NC2CCCC2)c1` (stereo not drawn) [Example 247, 3-(trans-2-aminocyclopropyl)-N-cyclopentylbenzamide hydrochloride [optical isomer, compound derived from methyl 3-(trans-2-((tert-butoxycarbonyl)amino)cyclopropyl)benzoate (optical isomer, retention time long)]] was tested, and the IC50 [1] was greater than 10 µM and the IC50 [2] was greater than 10 µM.
